Results on one substance are retold here after patent US20170216277A1, “THERAPEUTIC USE OF […] AQUARETIC EFFECTS” (TREVI THERAPEUTICS, INC., priority 2016, published 2017).

The subject of one series is δ opioid receptor. To be noted: in vitro; Gharagozlou et al., Neurosci. 2002 3:19; cited from earlier work.
Series [1] is described as follows: Urinalysis laboratory tests incl. urine specific gravity, TR01, healthy subjects (Cohort 2). The following applies: Study Days 7 and 14, any subject.

On to “17-(cyclobutylmethyl)-4,5α-epoxymorphinian-3,6α,14-triol, hydrochloride [nalbuphine]”, for which the “Activity at δ opioid receptor” value in the series on δ opioid receptor is “δ opioid receptor antagonist”. The “Urine specific gravity relative to lowest pretreatment value” in series [1] is on record as “did not decline relative to the lowest pretreatment value”.
